pKi: −log10 of the molar value.
What was measured:
D(2) dopamine receptor = D(2) dopamine receptor (Rattus norvegicus, UniProt P61169); assay: Displacement of [3H]YM-09151-2 from rat striatum D2 receptor
Rattus norvegicus [1] = assay: Ratio of ED50 for catalepsy induction to ED50 for normalization in ip dosed rat; type: functional
Rattus norvegicus [2] = assay: Ratio of ED50 for LLR induction to ED50 for normalization in ip dosed rat; type: functional

Amino acid sequences for entries named in this document (tags omitted).
UniProt P61169, whole entry: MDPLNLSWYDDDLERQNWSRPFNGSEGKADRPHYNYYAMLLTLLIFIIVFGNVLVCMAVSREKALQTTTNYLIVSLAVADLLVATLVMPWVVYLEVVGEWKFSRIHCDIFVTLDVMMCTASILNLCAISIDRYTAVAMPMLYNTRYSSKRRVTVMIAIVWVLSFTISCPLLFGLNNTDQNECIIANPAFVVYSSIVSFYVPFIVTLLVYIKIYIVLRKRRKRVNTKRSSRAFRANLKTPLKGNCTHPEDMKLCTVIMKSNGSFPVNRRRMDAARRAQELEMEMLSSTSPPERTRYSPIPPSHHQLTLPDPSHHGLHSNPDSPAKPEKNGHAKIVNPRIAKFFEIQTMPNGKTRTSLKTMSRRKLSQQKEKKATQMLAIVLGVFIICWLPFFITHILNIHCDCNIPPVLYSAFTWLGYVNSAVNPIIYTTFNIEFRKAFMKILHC

Fc1ccc(-c2cncc(CN3CCN(c4cccc5c4OCCO5)CC3)c2)cc1 [ADOPRAZINE]
pKi (D(2) dopamine receptor): 8.40 | Ratio ED50 (Rattus norvegicus [1]): >28 | Ratio ED50 (Rattus norvegicus [2]): 0.2

Reference: ChEMBL document CHEMBL1141420, “Towards a new generation of potential antipsychotic agents combining D2 and 5-HT1A receptor activities” (J Med Chem, 2007)
